{"sequences": {"note": "By UniProt entry, the sequences of proteins in these tests, tags left out.", "UniProt P43220, whole entry, looked up": "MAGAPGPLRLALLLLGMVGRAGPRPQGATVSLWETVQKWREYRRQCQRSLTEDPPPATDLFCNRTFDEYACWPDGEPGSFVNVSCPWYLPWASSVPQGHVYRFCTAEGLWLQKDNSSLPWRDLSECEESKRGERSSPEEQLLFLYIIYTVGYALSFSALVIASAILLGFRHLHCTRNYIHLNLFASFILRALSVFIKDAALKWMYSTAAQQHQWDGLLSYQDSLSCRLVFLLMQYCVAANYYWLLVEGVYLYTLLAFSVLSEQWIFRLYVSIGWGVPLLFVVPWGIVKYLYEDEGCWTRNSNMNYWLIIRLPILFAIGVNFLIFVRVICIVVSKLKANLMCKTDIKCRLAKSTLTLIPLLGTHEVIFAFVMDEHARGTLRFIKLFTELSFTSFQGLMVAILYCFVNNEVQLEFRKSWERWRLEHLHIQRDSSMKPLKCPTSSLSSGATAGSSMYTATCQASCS"}, "source": "PubChem BioAssay AID624417", "about": "(National Center for Advancing Translational Sciences (NCATS), 2012)", "note": "Only a part is listed here, and it is no random draw. Inconclusive results are not listed. The source made the active and inactive calls. Calls follow the shape of the dose curve; as a rule, active = well fitted inhibition curve with a large enough effect; inconclusive = small, poorly fitted or top-dose-only effect; inactive = no such curve, though single readings can be large or run the other way. % is scaled to controls: 0 for no effect and ±100 for the full control effect; potency is read from the fitted curve at half-maximal effect.", "data": [{"target": "Glucagon-like peptide 1 receptor (Homo sapiens) (UniProt P43220)", "test": "qHTS of GLP-1 Receptor Inverse Agonists (Inhibition Mode); also: nearly all actives have a fitted effect of over 55% in size", "conditions": "HEK293 GLP-1R CRE-luciferase, luminescence, 24 h, GLP-1R form is constitutively active; series mostly up to 38.3 µM; activity change, negative = inhibition: at the top concentration", "values": [{"smiles": "Nc1ccccc1[As](=O)(O)c1ccccc1", "activity change, negative = inhibition": "inactive: -2.12%"}, {"smiles": "O=C(O)COc1ccc([As](=O)(O)O)cc1[N+](=O)[O-]", "activity change, negative = inhibition": "inactive: -0.419%"}, {"smiles": "CCOP1(=S)c2c(C)nn(CCC#N)c2N=C(c2ccccc2F)N1C", "note": "(stereo not given)", "activity change, negative = inhibition": "inactive: 9.35%"}, {"smiles": "O=P(Nc1nccs1)(Oc1ccccc1)Oc1ccccc1", "activity change, negative = inhibition": "inactive: -20.7%"}, {"smiles": "O=P(Nc1nccs1)(c1ccccc1)c1nc2ccccc2s1", "note": "(stereo not given)", "activity change, negative = inhibition": "inactive: -0.31%"}, {"smiles": "CS(=O)(=O)c1cc([N+](=O)[O-])c2no[n+]([O-])c2c1", "activity change, negative = inhibition": "inactive: 12.7%"}, {"smiles": "CN(C(=O)Cc1ccccc1)[C@@H]1CC[C@]2(CCCO2)C[C@H]1N1CCCC1", "activity change, negative = inhibition": "inactive: 8.75%"}, {"smiles": "CCOP1(=S)c2c(C)nn(CCC#N)c2N=C(c2ccc(F)cc2)N1C", "note": "(stereo not given)", "activity change, negative = inhibition": "inactive: 4.35%"}, {"smiles": "O=[N+]([O-])c1ccc2c(c1)nnn2O", "activity change, negative = inhibition": "inactive: 8.47%"}, {"smiles": "CN(C)C(=O)c1cc([N+](=O)[O-])cc2c1-c1c(cc([N+](=O)[O-])cc1[N+](=O)[O-])C2=O", "activity change, negative = inhibition": "inactive: -5.41%"}, {"smiles": "CN(C(=O)Cc1ccc(Cl)c(Cl)c1)[C@H]1CC[C@@]2(CCCO2)C[C@@H]1N1CCCC1", "activity change, negative = inhibition": "inactive: -2.87%"}, {"smiles": "NC(=O)Nc1ccc([As](=O)(O)O)cc1", "activity change, negative = inhibition": "inactive: 13.3%"}, {"smiles": "Cc1cccc(OCC(=O)OC2CN3CCC2CC3)c1", "note": "(stereo not given)", "activity change, negative = inhibition": "inactive: 7.36%"}, {"smiles": "O=[As](O)(c1cccc(O)c1)c1cccc(O)c1", "activity change, negative = inhibition": "inactive: -13.2%"}, {"smiles": "O=C(OC1CN2CCC1CC2)c1ccc(Cl)cc1", "note": "(stereo not given)", "activity change, negative = inhibition": "inactive: -15.6%"}, {"smiles": "O=[As](O)(O)c1cccnc1", "activity change, negative = inhibition": "inactive: 20.2%"}, {"smiles": "COc1cc(C(=O)NCC2(N3CCOCC3)CCCCC2)cc(Cl)c1OC(C)C", "Potency": "active: 3.55 µM"}, {"smiles": "CS(=O)(=O)c1ccc(Cl)c(NC(=O)COC(=O)C(O)(c2ccccc2)c2ccccc2)c1", "activity change, negative = inhibition": "inactive: -3.22%"}, {"smiles": "COc1cc(C2NCCC3(OCCO3)C2(C)C)cc(OC)c1OC", "note": "(stereo not given)", "activity change, negative = inhibition": "inactive: -7.57%"}, {"smiles": "CCOP(=O)(Nc1cccc2ccccc12)OCC", "activity change, negative = inhibition": "inactive: -24%"}, {"smiles": "Cc1ccc(NCCc2c([N+](=O)[O-])cc([N+](=O)[O-])cc2[N+](=O)[O-])cc1", "activity change, negative = inhibition": "inactive: -0.813%"}, {"smiles": "Nc1cccc2c([As](=O)(O)O)cccc12", "activity change, negative = inhibition": "inactive: 11.7%"}, {"smiles": "CCCOP(=S)(Nc1nc(N)cc(=O)[nH]1)OCCC", "activity change, negative = inhibition": "inactive: -5.8%"}, {"smiles": "O=P1(N(CCCl)CCCl)NCCC(C(F)(F)F)O1", "note": "(stereo not given)", "activity change, negative = inhibition": "inactive: -6.29%"}, {"smiles": "Clc1n[nH]nc1-c1nn[nH][15n]1", "activity change, negative = inhibition": "inactive: 32.5%"}, {"smiles": "CC(C)(C)C(=O)NC(Sc1ncccn1)C(Cl)(Cl)Cl", "note": "(stereo not given)", "activity change, negative = inhibition": "inactive: -14.1%"}, {"smiles": "O=P1(Nc2ccccn2)COc2ccccc2OC1", "activity change, negative = inhibition": "inactive: -0.733%"}, {"smiles": "CCOP(=O)(NC(=NC(C)c1ccccc1)NC(C)c1ccccc1)OCC", "note": "(stereo not given)", "activity change, negative = inhibition": "inactive: -28.9%"}, {"smiles": "CCOP(=O)(Nc1ccc(C)cn1)OCC", "activity change, negative = inhibition": "inactive: 6.95%"}, {"smiles": "CN(CCCl)Cc1cc(Cl)c(NC2=NCCN2)c(Cl)c1", "activity change, negative = inhibition": "inactive: -6.14%"}, {"smiles": "CC(C)/C=N\\N=C(\\N)N[N+](=O)[O-]", "activity change, negative = inhibition": "inactive: 1.72%"}, {"smiles": "CN(C(=O)Cc1ccc(Cl)c(Cl)c1)[C@@H]1CCCC[C@H]1N1CCCC1", "activity change, negative = inhibition": "inactive: 2.94%"}, {"smiles": "CC1(CBr)Cn2c(nc3ccccc3c2=O)S1", "note": "(stereo not given)", "activity change, negative = inhibition": "inactive: -0.0245%"}, {"smiles": "COc1ccccc1CNC(=O)COC(=O)C(O)(c1ccccc1)c1ccccc1", "activity change, negative = inhibition": "inactive: -14.5%"}, {"smiles": "CN(C)C1(CNC(=O)c2ccc(S(C)(=O)=O)cc2)CCCCC1", "activity change, negative = inhibition": "inactive: -21.8% [at 7.66 µM]"}, {"smiles": "CCCC1OP(=O)(Nc2ccccc2)OCC1CC", "note": "(stereo not given)", "activity change, negative = inhibition": "inactive: -3.56%"}, {"smiles": "Cc1nn(-c2ccccc2)c2c1P(=O)(N1CCOCC1)N(C)C(c1ccccc1)=N2", "note": "(stereo not given)", "activity change, negative = inhibition": "inactive: 14.8%"}, {"smiles": "Cc1ccc(C(=O)OC2CN3CCC2CC3)cc1", "note": "(stereo not given)", "activity change, negative = inhibition": "inactive: -14.9%"}, {"smiles": "Nc1cccc([As](=O)(O)c2ccccc2)c1", "activity change, negative = inhibition": "inactive: 13.2%"}, {"smiles": "Cc1ccc(OCC(=O)OC2CN3CCC2CC3)cc1", "note": "(stereo not given)", "activity change, negative = inhibition": "inactive: -2.36%"}, {"smiles": "O=[As](O)(c1cccs1)c1cccs1", "activity change, negative = inhibition": "inactive: 2.82%"}, {"smiles": "O=P1(Nc2ccc(Br)cn2)COc2ccccc2OC1", "activity change, negative = inhibition": "inactive: -0.841%"}, {"smiles": "NS(=O)(=O)c1cccc(NC(=O)COC(=O)C(O)(c2ccccc2)c2ccccc2)c1", "activity change, negative = inhibition": "inactive: -17.6%"}, {"smiles": "Cc1ccc(S(=O)(=O)N(CCCN)CCCc2c(C)nc(N)[nH]c2=O)cc1", "activity change, negative = inhibition": "inactive: -20.8%"}, {"smiles": "O=P1(Nc2ncccn2)COc2ccccc2OC1", "activity change, negative = inhibition": "inactive: 5.55%"}, {"smiles": "COP(=O)(OC)N1CC1c1ccccc1", "note": "(stereo not given)", "activity change, negative = inhibition": "inactive: -9.78%"}, {"smiles": "Cc1cc(SC(NC(=O)c2ccccc2)C(Cl)(Cl)Cl)nc(C(C)C)n1", "note": "(stereo not given)", "activity change, negative = inhibition": "inactive: 8.44%"}, {"smiles": "CCOC(=O)Nc1ccc([As](=O)(O)O)c(O)c1", "activity change, negative = inhibition": "inactive: -4.59%"}, {"smiles": "O=C(O)C(O)c1ccc(N(CCCl)CCCl)cc1", "note": "(stereo not given)", "activity change, negative = inhibition": "inactive: -12.9%"}, {"smiles": "CC1CCNP(=O)(N(CCCl)CCCl)O1", "note": "(stereo not given)", "activity change, negative = inhibition": "inactive: 8.36%"}, {"smiles": "Cc1cc(SC(NC=O)C(Cl)(Cl)Cl)ncn1", "note": "(stereo not given)", "activity change, negative = inhibition": "inactive: 6.13%"}, {"smiles": "O=[N+]([O-])c1ccc(Nc2ccc(Oc3ccc([N+](=O)[O-])cc3[N+](=O)[O-])cc2)c([N+](=O)[O-])c1", "activity change, negative = inhibition": "inactive: -3.2%"}, {"smiles": "CCOC(=O)Nc1cccc([As](=O)(O)O)c1", "activity change, negative = inhibition": "inactive: 6.83%"}, {"smiles": "O=C(COc1ccccc1)OC1CN2CCC1CC2", "note": "(stereo not given)", "activity change, negative = inhibition": "inactive: -6.44%"}, {"smiles": "O=C(Nc1ccncc1[N+](=O)[O-])c1ccc([N+](=O)[O-])cc1[N+](=O)[O-]", "activity change, negative = inhibition": "inactive: -12.6%"}, {"smiles": "COP1(=S)c2c(C)nn(CCC#N)c2N=C(c2ccc(F)cc2)N1C", "note": "(stereo not given)", "activity change, negative = inhibition": "inactive: -3.13%"}, {"smiles": "COC(=O)C1(C)COP(=O)(N2CCCC2)OC1", "note": "(stereo not given)", "activity change, negative = inhibition": "inactive: 15.3%"}, {"smiles": "CCOC(=O)c1ccc(NC(=O)C(C)(CCl)SC)cc1", "note": "(stereo not given)", "activity change, negative = inhibition": "inactive: 8.2%"}, {"smiles": "O=P1(N(CCCl)CCCl)Nc2ccccc2N1", "activity change, negative = inhibition": "inactive: 18.1%"}, {"smiles": "O=P1(N(CCCl)CCCl)OCCCN1CCCl", "note": "(stereo not given)", "activity change, negative = inhibition": "inactive: 15.8%"}, {"smiles": "COc1cc(I)ccc1[As](=O)(O)O", "activity change, negative = inhibition": "inactive: 22.4%"}, {"smiles": "Cc1cc(=O)[nH]c(N[N+](=O)[O-])n1", "activity change, negative = inhibition": "inactive: 11.4%"}, {"smiles": "O=[N+]([O-])c1cc(Oc2ccc([N+](=O)[O-])cc2C(F)(F)F)cc([N+](=O)[O-])c1", "activity change, negative = inhibition": "inactive: 0.105%"}, {"smiles": "COc1ccc(N/C(=N/P(=O)(N2CCOCC2)N2CCOCC2)N2CCOCC2)cc1", "activity change, negative = inhibition": "inactive: -2.27% [at 7.66 µM]"}, {"smiles": "[N-]=[N+]=NC1CCCCC1NC(=O)c1cc([N+](=O)[O-])cc([N+](=O)[O-])c1", "note": "(stereo not given)", "activity change, negative = inhibition": "inactive: -27.5%"}, {"smiles": "Cc1ccc(OP(=O)(Nc2ccc([N+](=O)[O-])cn2)Oc2ccc(C)cc2)cc1", "activity change, negative = inhibition": "inactive: -5.63%"}, {"smiles": "C[As](=O)(O)c1cccc(C(=O)O)c1", "activity change, negative = inhibition": "inactive: 12%"}, {"smiles": "O=[As](O)(c1ccc(O)cc1)c1ccccc1O", "activity change, negative = inhibition": "inactive: 51.4%"}, {"smiles": "COc1cc(C(=O)NCC2(N3CCOCC3)CCCCC2)ccc1OCC(C)C", "Potency": "active: 4.47 µM"}, {"smiles": "CC(C)NC(=O)NP(=O)(Oc1ccccc1)Oc1ccccc1", "activity change, negative = inhibition": "inactive: -2.24%"}, {"smiles": "CCN(CC)C(=S)SC(NC=O)C(Cl)(Cl)Cl", "note": "(stereo not given)", "activity change, negative = inhibition": "inactive: -13.3%"}, {"smiles": "O=C(OC1CN2CCC1CC2)c1cccc2[nH]cnc12", "note": "(stereo not given)", "activity change, negative = inhibition": "inactive: 47.3%"}, {"smiles": "ClCCSc1nnc(-c2cccnc2)o1", "activity change, negative = inhibition": "inactive: 7.18%"}, {"smiles": "COC(=O)C1(C)COP(=O)(N2CCCCCC2)OC1", "note": "(stereo not given)", "activity change, negative = inhibition": "inactive: 0.801%"}, {"smiles": "Cc1cc(SC(NC(=O)c2ccc(F)cc2)C(Cl)(Cl)Cl)ncn1", "note": "(stereo not given)", "activity change, negative = inhibition": "inactive: 2.35%"}]}]}
